The target of the data set is T1, human CYP3A4 (Homo sapiens, UniProt P08684).
T1 construct: purchased GENTEST
The data set can be described thus: Assay of human CYP3A4-inhibitory activity. The data set is classed as biochemical. The settings on record: testosterone 100 μM, human CYP3A4 10 pmol/ml, 37° C., 30 min; read-out: IC50 (CYP3A4 inhibition, 6β-hydroxytestosterone production). The method, then:
Assay of Human CYP3A4-Inhibitory Activity
Performed as in the following according to Journal of Biological Chemistry, vol. 256, 11937 (1983).
A phosphate buffer solution (50 mM, pH 7.4) containing testosterone (final concentration 100 μM, hereinafter the same), human CYP3A4 (10 pmol/ml, manufactured by GENTEST), NADPH producing system (0.5 mM NADP, 5 mM glucose-6-phosphate, 5 mM magnesium chloride, 1.5 units/ml glucose-6-phosphate dehydrogenase) and the test compound was incubated at 37° C. for 30 min. Acetonitrile was added to the reaction mixture and the mixture was stirred and centrifuged. The 6β-hydroxytestosterone in the obtained supernatant was analyzed by high performance liquid chromatography.

Amino acid sequences for entries named in this document (tags omitted).
UniProt P08684, whole entry: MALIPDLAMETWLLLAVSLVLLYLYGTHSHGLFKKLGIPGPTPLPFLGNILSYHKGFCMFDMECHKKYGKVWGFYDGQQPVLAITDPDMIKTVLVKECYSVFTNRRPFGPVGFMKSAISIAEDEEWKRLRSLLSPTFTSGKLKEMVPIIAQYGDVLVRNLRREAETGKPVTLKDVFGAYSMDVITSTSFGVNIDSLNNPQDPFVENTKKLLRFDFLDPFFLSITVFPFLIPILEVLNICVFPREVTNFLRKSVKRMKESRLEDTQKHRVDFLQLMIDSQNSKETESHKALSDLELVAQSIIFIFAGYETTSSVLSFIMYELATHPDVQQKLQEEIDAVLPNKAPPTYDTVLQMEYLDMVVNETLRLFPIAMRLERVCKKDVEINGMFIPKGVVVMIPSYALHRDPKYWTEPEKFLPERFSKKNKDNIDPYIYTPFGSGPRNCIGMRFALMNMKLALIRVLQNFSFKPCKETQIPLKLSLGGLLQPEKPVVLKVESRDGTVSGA

Bounds are passed on as bounds.

In the case of “6-(6,7-dihydro-5H-pyrrolo[1,2-c]imidazol-7-yl)-N-methyl-2-naphthamide [Reference Example 11, reference compound]”, the 50% inhibitory concentration (IC50) is less than 1 µM.

The record behind these values is US7141598B2, “Imidazole derivatives, production method thereof and use thereof” (Takeda Pharmaceutical Company, Ltd., priority 2000, dated 2006).
